Rango dissoc inh: prevents RanGTP from dissociating the Rango-importin beta complex. O95149+P62826. Biochemical FRET Rango-importin beta, RanGTP-induced dissociation. Potency, µM (doses to about 46.1 µM). 0.071% of 340,000 active. AID 540253; further: nearly all actives have a fitted effect of over 45% in size
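Rango/importin beta premix (0.1/0.25 uM final), PBS + 1 mM DTT + 0.02% Tween-20 + 0.1% BSA; cpd 5 min RT; FRET pre-read; + RanGTP-RCC1 (0.6 uM Ran, 2 mM GTP, 0.2 uM RCC1); 45 min RT; FRET post-read, ex 430, em 486/530 nm.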
uPA generation: cell surface uPA generation inhibition; cell surface uPA generation assay, qHTS; Potency, µM (top dose mostly 38.3 µM), hits mostly inhibitors; 0.31% of 330,000 active; active means well fitted inhibition curve with a large enough effect; inconclusive means small, poorly fitted or top-dose-only effect; inactive means no such curve, though single readings can be large or run the other way; tested in mouse RAW 264.7 cells; further: nearly all actives have a fitted effect of over 55% in size
Giardia killer: Giardia lamblia killing; 0.15% of 340,000 active; Giardia lamblia trophozoite viability; activity change, % at 7.66 µM, hits read low; in the data active means activity change below about -80%; inconclusive means between about -30% and that limit;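 further: parasites exposed to compound for two days anaerobically before the ATP read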
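Each well holds 100 Giardia trophozoites and compound. After two days (48 hrs) at 37 deg C in anaerobic conditions, ATP is quantified by luminescence.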
Rango complex inh: Rango-importin beta binding inhibition; Q14974; Rango CFP/YFP FRET sensor + importin beta, 45 min; Potency, µM (highest dose often 92.2 µM); 0.031% of 340,000 active; AID 540263; further: nearly all actives have a fitted effect of over 15% in size
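Inhibition scored from the CFP 486 nm/YFP 530 nm FRET ratio 45 min after adding 0.125 microM importin beta to 50 nM Rango biosensor preincubated 5 min with compound (room temperature, PBS with DTT, Tween-20, BSA). No-importin wells as positive control.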
Integrin act MD: activates integrin-mediated alleviation for muscular dystrophy; 0.064% of 350,000 active; alpha7betagal myoblasts, beta-gal FDG fluorescence, 48 h; AID 624291; Potency, µM (series often up to 38.3 µM), most hits filed as activators; active means well fitted activation curve with a large enough effect; inconclusive means small, poorly fitted or top-dose-only effect; inactive means no such curve, though single readings can be large or run the other way; further: nearly all actives have a fitted effect of over 60% in size
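Alpha7betagal+/- myoblasts (passage 13) were plated 16-24 hr, then exposed to compounds (1:260 dilution of DMSO stock) for 48 hours at 37C. After MPER lysis, β-galactosidase reporter activity was read as FDG fluorescence (ex 480/em 540) after 30 minutes.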
Hits are given with their value; . = inactive; ? = inconclusive; / = no result given. In the library only some 0.59% were active in any assay of this set; here they are far more common. Unless noted, the call rests on the fitted dose curve.

SMILES | Rango dissoc inh | uPA generation | Giardia killer | Rango complex inh | Integrin act MD
Cc1ccc(Sc2ncccc2[N+](=O)[O-])cc1 | . | . | . | . | .
Cc1c([N+](=O)[O-])cnc(Sc2ccccc2)c1[N+](=O)[O-] | . | 8.9µM | . | . | .
CCNc1nc(NCC)nc(-n2cc(C(=O)c3cc(Cl)ccc3O)cn2)n1 | / | / | . | / | /
COc1cc(C(=O)/C=C/c2cccnc2)c([N+](=O)[O-])cc1OC | . | 8.9µM | -90 | . | .
COc1ccccc1N1CCN(S(=O)(=O)CCNC(=O)CC2CCCCC2)CC1 | ? | . | . | . | .
COc1cccc(CN2CCCC(C(=O)Nc3ccc(-c4cscn4)cc3)C2)c1 (configuration not stated) | . | 7.1µM | . | . | .
CCN(CC)CCN1C(=O)C(=O)/C(=C(/O)c2ccc(S(=O)(=O)N3CCOCC3)cc2)C1c1ccc(C)cc1 (configuration not stated) | . | . | . | . | .
O=S(=O)(c1ccc(F)cc1)N1CCN(c2nc(-c3cccs3)nc3ccccc23)CC1 | / | / | . | / | /
CC1C/C(=C/c2ccncc2)C(=O)/C(=C/c2ccncc2)C1 (configuration not stated) | . | 3.5µM | ? | . | .
O=C(COC(=O)c1cc(S(=O)(=O)N2CCCCC2)ccc1N1CCOCC1)c1ccc(F)cc1 | . | . | . | . | .
Cc1ccc(-c2nc(C(Cl)Cl)c3ccccc3n2)cc1 | . | 1µM | . | . | .
COc1ccc(N=NC2=C(O)CC(C)(C)CC2=O)c(OC)c1 | . | . | . | 52µM | .
O=[N+]([O-])/C=C\c1ccc(N2CCOCC2)cc1 | . | 8.9µM | . | . | .
C[C@H](CO)N1C[C@H](C)[C@@H](CN(C)S(=O)(=O)c2ccccc2)Oc2c(NC(=O)Nc3ccc4c(c3)OCO4)cccc2C1=O | . | . | . | . | .
NS(=O)(=O)c1ccc(NC(=O)c2ccc(CNS(=O)(=O)c3cc(C(F)(F)F)ccc3Cl)cc2)cc1 | . | . | . | . | 10µM
CCOc1cc(N2CCOCC2)c(OCC)cc1NC(=O)c1nn(CC)c(=O)c2ccccc12 | . | . | . | . | .
CC(=O)Nc1ccc(NC(=O)c2cc(=O)c3cc(C)cc(C)c3o2)cc1 | . | . | . | . | 11µM
Cc1cc(C)c2oc(C(=O)Nc3ccc(S(=O)(=O)N4CCC(C)CC4)cc3)cc(=O)c2c1 | . | . | . | ? | .
Cc1ccc(S(=O)(=O)N(CC(=O)Nc2cccnc2)c2cccc([N+](=O)[O-])c2)cc1 | . | 11µM | . | . | .
Cc1ccc(S(=O)(=O)N(CC(=O)Nc2cccnc2)c2cccc(Br)c2)cc1 | . | ? | . | . | .
CCCC/C=C/[C@@H](c1ccccc1)C1COC(=O)CC1O (some centres not stated) | / | / | . | / | /
COCOc1cc(O)c(C(=O)/C=C/c2ccccc2)c(OCOC)c1 | . | 10µM | . | . | .
CC(Oc1cc2oc(=O)c3c(c2cc1Cl)CCC3)C(=O)N1C[C@H]2C[C@@H](C1)c1cccc(=O)n1C2 (some centres not stated) | . | . | . | . | .
COc1ccc(-c2cc(C(=O)NN)[nH]n2)cc1OC | . | 10µM | . | . | .
Cc1ccc2[nH]c(=O)c(CN(CCCO)Cc3nnnn3Cc3ccco3)cc2c1 | / | / | . | / | /
SMILES | Rango dissoc inh | uPA generation | Giardia killer | Rango complex inh | Integrin act MD
Cc1cc(SCC(=O)NC2CC2)nc2ccccc12 | . | . | . | . | .
Cc1cc(SCC(=O)NCC2CCCO2)nc2ccccc12 (configuration not stated) | . | . | . | 37µM | .
COc1ccc2c3n([n+]([O-])c2c1)CCN=C3c1ccc(C)cc1 | . | . | -90 | . | .
COc1ccc2c3n(nc2c1)CCN=C3c1ccc(Cl)cc1 | . | . | . | . | .
COc1ccc2c3n([n+]([O-])c2c1)CCN=C3c1cc(Cl)c(N)c(Cl)c1 | . | . | -93 | . | .
CCO/C=C1\C(=O)N(c2ccccc2)C(=O)c2ccccc21 | 13µM | . | . | ? | .
COCc1c(C(=O)OCc2nc3ccsc3c(=O)[nH]2)oc2ccccc12 | . | . | . | . | 1.1µM
O=C(Nc1ccccc1O)c1ccc(NS(=O)(=O)c2cccc3cccnc23)cc1 | . | 7.1µM | . | . | .
CCOc1cc(C(=O)N/N=C/c2cn(-c3ccccc3)nc2-c2cc3ccccc3o2)cc(OCC)c1OCC | . | . | . | . | .
N=c1c2c(n(Cc3ccc(Br)cc3)c3c1CCC3)CCCC2 | . | 4µM | . | . | .
C=C1CCN(C(CC(C)C)C(=O)NN2CCOCC2)S(=O)(=O)c2ccccc21 (configuration not stated) | / | / | . | / | /
Brc1ccc2c(c1)C(C1=NCCN1)c1ccccc1CS2 (configuration not stated) | . | 0.5µM | . | ? | .
C=CCSC(=C(C#N)C#N)c1cc2c([nH]1)CCCC2 | 16µM | . | . | ? | .
O=C(OC1C2C=CC1C1C(=O)NC21)c1ccccc1 (configuration not stated) | / | / | / | / | .
CC1CCN(C(=O)c2ccc([N+](=O)[O-])o2)CC1 | . | . | ? | . | .
CCC1CCCCN1C(=O)c1ccc([N+](=O)[O-])o1 (configuration not stated) | . | . | -97 | . | .
CC1CCCN(C(=O)c2ccc([N+](=O)[O-])o2)C1 (configuration not stated) | . | . | -84 | . | .
CN(C)S(=O)(=O)c1ccc(C(=O)Nc2ccccc2C(=O)NCCCN2CCOCC2)cc1 | . | . | . | . | .
CC(C)(C)c1ccc(S(=O)(=O)N2CCN(c3nc(-c4ccccc4)nc4ccccc34)CC2)cc1 | / | / | . | / | /
C[C@@H]1CN([C@H](C)CO)C(=O)CCCn2cc(nn2)CO[C@H]1CN(C)S(=O)(=O)c1ccc(-c2ccccc2)cc1 | / | / | / | / | .
CC1CCN(c2ccc(-c3cccs3)nn2)CC1 | . | 0.89µM | -94 | . | .
Clc1ccc(-c2cccs2)nn1 | . | . | . | ? | ?
CC1CCC(NC(=O)Cn2cnc3sccc3c2=O)CC1 (configuration not stated) | . | . | . | . | .
O=c1[nH]c(CN2CCN(c3ccc(O)cc3)CC2)nc2scc(-c3ccc(Cl)cc3)c12 | . | 5µM | . | . | .
Cc1ccc(S(=O)(=O)NCCC(=O)Oc2ccc3ccc(=O)oc3c2)cc1 | 12µM | . | . | ? | .
COc1ccc(-c2cc(=O)c3cc(OC)ccc3o2)cc1 | . | 1.4µM | ? | . | .
NC(=O)c1ccsc1NC(=O)c1ccc([N+](=O)[O-])o1 | . | 7.1µM | -95 | ? | .
N#Cc1c(NC(=O)c2ccc([N+](=O)[O-])o2)sc2c1CCC2 | . | ? | -94 | . | .
CN1CCc2c(sc(NC(=O)c3ccc([N+](=O)[O-])o3)c2C(N)=O)C1 | . | . | ? | ? | .
NC(=O)c1c(NC(=O)c2ccc([N+](=O)[O-])o2)sc2c1CCCC2 | . | . | -91 | . | ?
